Target: 5-hydroxytryptamine receptor 2A (Homo sapiens, UniProt P28223)
Assay: Displacement of [3H]ketanserin from human recombinant 5HT2A receptor expressed in mouse NIH3T3 cells
Type: cell-based

Protein sequences, listed by entry. Tags and fused reporters are not part of them.
UniProt P28223, whole entry: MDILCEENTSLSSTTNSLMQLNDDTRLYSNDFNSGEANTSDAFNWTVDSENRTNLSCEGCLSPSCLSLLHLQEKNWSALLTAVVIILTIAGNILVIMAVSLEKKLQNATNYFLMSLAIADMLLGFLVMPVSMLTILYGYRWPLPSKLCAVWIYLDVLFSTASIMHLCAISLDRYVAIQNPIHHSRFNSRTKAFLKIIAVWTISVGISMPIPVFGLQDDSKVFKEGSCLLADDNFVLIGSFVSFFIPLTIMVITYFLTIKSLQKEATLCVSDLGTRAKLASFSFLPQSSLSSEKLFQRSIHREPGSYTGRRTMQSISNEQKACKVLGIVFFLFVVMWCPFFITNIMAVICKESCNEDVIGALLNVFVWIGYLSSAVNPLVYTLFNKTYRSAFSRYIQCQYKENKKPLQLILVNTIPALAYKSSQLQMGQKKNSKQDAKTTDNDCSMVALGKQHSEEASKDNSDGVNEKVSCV

Row | Ki | Compound
1 | 130 nM | Fc1ccc(-c2nc(Cc3ccccc3)nc3c2CNCCC3)cc1
2 | 29 nM | CC(C)Cc1nc2c(c(-c3ccc(F)cc3)n1)CNCC2
